From US20090311217A1, “3-SUBSTITUTED-1H-INDOLE COMPOUNDS, THEIR USE AS MTOR KINASE AND PI3 KINASE INHIBITORS, AND THEIR SYNTHESES” (priority 2008, published 2009)
pIC50: −log10 of the molar value.

Chains of the proteins cited; added tags and fusions are not shown.
UniProt P42336, whole entry, species assumed: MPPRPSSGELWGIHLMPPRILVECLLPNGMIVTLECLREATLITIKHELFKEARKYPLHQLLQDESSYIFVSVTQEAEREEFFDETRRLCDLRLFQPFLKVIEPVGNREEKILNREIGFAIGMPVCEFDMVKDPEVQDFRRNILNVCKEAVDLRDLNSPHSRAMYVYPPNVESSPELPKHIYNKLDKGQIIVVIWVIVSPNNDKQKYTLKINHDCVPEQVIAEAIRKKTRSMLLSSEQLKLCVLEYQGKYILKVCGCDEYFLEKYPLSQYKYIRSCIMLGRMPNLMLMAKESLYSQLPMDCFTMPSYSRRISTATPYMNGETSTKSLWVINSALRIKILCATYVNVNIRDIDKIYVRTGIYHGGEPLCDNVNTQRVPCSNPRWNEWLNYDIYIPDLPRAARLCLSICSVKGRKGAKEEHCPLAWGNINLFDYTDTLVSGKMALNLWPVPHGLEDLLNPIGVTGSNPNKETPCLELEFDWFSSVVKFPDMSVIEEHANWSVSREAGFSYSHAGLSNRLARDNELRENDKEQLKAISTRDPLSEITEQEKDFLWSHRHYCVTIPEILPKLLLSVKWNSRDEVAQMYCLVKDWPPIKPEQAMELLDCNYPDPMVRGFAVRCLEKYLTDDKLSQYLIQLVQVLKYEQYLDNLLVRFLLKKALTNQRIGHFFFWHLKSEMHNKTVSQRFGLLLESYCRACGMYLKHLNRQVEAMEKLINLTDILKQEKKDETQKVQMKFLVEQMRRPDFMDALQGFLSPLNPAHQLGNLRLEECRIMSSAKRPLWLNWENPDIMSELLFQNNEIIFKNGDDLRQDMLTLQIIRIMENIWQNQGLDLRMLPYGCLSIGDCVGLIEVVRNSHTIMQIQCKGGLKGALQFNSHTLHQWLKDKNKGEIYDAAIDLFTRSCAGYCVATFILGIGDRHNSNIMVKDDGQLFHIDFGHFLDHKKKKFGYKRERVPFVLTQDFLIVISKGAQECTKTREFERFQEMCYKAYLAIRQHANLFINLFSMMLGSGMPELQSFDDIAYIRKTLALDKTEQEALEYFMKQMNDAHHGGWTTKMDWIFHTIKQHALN

Target: PI3K-alpha (Homo sapiens, UniProt P42336)
Assay: PI3K-alpha fluorescence polarization assay
Format: biochemical
Details: read-out: PI3Kα Avg. IC50

In the case of COc1ccc2[nH]c(-c3ccccc3)c(C=C3Oc4cc(O)cc(O)c4C3=O)c2c1 [Example 70, 4,6-dihydroxy-2-[(5-methoxy-2-phenyl-1H-indol-3-yl)methylene]-1-benzofuran-3(2H)-one], the pIC50 was 8.49.
